How the values were obtained:
Assay in all cases: Kinase Profiling Assay
Assay type in all cases: biochemical
Conditions in all cases: peptide 100 μM
[1] = target: T1, HIPK3(h) (Homo sapiens, UniProt Q9H422)
T1 construct: purchased Millipore
Summary of the method: (§1)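 Kinase inhibition by MK2 inhibitory peptides was profiled radiometrically, with substrate phosphorylation from labeled ATP read by scintillation after capture on a charged filter. Values are relative to 100% activity and measured in duplicate.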

[2] = target: CDK9/cyclin T1(h) (Homo sapiens, UniProt P50750)
Summary of the method: as §1

[3] = target: T2, Lck(h) (Homo sapiens, UniProt P06239)
T2 construct: purchased Millipore
Summary of the method: as §1

[4] = target: cKit(V560G)(h) (Homo sapiens, UniProt P10721, V560G)
Summary of the method: as §1

[5] = target: Plk3(h) (Homo sapiens, UniProt Q9H4B4)
Summary of the method: as §1

[6] = target: Abl(M351T)(h) (Homo sapiens, UniProt P00519, M351T)
Summary of the method: as §1

[7] = target: Abl(Y253F)(h) (Homo sapiens, UniProt P00519, Y253F)
Summary of the method: as §1

[8] = target: T3, IKKβ(h) (Homo sapiens, UniProt O14920)
T3 construct: purchased Millipore
Summary of the method: as §1

[9] = target: T4, SGK2(h) (Homo sapiens, UniProt Q9HBY8)
T4 construct: purchased Millipore
T4 sequence (Q9HBY8 1-367): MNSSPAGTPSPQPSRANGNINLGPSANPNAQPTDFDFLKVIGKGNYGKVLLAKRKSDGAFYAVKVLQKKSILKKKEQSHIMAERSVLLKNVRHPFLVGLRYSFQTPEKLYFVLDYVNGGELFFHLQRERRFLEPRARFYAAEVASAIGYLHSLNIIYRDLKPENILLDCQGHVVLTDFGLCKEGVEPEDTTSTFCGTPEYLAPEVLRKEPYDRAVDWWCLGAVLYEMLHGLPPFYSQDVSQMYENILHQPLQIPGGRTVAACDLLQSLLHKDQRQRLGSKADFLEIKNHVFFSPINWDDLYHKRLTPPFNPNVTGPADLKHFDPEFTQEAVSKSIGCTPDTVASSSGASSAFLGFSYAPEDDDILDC
Summary of the method: as §1

[10] = target: T5, JNK2α2(h) (Homo sapiens, UniProt P45984)
T5 construct: purchased Millipore
Summary of the method: as §1

[11] = target: T6, LIMK1(h) (Homo sapiens, UniProt P53667)
T6 construct: purchased Millipore
Summary of the method: as §1

[12] = target: T7, SAPK2a(h) (Homo sapiens, UniProt Q16539)
T7 construct: purchased Millipore
Summary of the method: as §1

[13] = target: T8, MRCKα(h) (Homo sapiens, UniProt Q5VT25)
T8 construct: purchased Millipore
Summary of the method: as §1

[14] = target: T9, BrSK2(h) (Homo sapiens, UniProt Q8IWQ3)
T9 sequence (Q8IWQ3 1-736): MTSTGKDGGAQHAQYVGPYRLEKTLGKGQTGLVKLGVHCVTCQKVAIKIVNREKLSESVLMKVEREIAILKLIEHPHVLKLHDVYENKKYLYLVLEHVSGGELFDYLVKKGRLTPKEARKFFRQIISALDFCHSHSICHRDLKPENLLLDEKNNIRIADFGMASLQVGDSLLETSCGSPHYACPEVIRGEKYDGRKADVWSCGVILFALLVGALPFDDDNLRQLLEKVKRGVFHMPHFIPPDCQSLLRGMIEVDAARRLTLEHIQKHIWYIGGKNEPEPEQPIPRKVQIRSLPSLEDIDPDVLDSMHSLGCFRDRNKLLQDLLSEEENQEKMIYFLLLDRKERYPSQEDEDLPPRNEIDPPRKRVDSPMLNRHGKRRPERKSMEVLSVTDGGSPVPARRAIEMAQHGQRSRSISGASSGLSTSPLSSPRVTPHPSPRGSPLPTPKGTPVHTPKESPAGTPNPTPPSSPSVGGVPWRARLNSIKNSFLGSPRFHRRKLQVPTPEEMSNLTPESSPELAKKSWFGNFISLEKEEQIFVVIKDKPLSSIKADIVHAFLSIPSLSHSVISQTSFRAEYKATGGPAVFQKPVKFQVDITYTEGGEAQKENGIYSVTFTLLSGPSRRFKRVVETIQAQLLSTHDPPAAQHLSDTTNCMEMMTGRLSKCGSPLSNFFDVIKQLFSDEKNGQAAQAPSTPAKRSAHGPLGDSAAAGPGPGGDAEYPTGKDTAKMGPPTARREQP
Summary of the method: as §1

[15] = target: ROCK-I(h) (Homo sapiens, UniProt Q13464)
Summary of the method: as §1

[16] = target: Plk1(h) (Homo sapiens, UniProt P53350)
Summary of the method: as §1

[17] = target: Tie2(R849W)(h) (Homo sapiens, UniProt Q02763, R849W)
Summary of the method: as §1

[18] = target: T10, IGF-1R(h) (Homo sapiens, UniProt P08069)
T10 construct: purchased Millipore
Summary of the method: as §1

[19] = target: CK2α2(h) (Homo sapiens, UniProt P19784)
Summary of the method: as §1

[20] = target: Ron(h) (Homo sapiens, UniProt Q04912)
Summary of the method: as §1

[21] = target: T11, NEK11(h) (Homo sapiens, UniProt Q8NG66)
T11 construct: purchased Millipore
Summary of the method: as §1

[22] = target: Flt3(h) (Homo sapiens, UniProt P36888)
Summary of the method: as §1

[23] = target: T12, mTOR(h) (Homo sapiens, UniProt P42345)
T12 construct: purchased Millipore
Summary of the method: as §1

Compound | % activity [1] [%] | % activity [2] [%] | % activity [3] [%] | % activity [4] [%] | % activity [5] [%] | % activity [6] [%] | % activity [7] [%] | % activity [8] [%] | % activity [9] [%] | % activity [10] [%] | % activity [11] [%] | % activity [12] [%] | % activity [13] [%] | % activity [15] [%] | % activity [16] [%] | % activity [17] [%] | % activity [18] [%] | % activity [19] [%] | further results
YARAAARQARAKALNRQLGVA (Mammal) [MMI-0200] | 105 | 103 | 113 | 115 | 107 | 119 | 102 | 109 | 119 | 109 | 109 | 107 | 103 | 117 |  |  |  |  | % activity [14]: 102%
FAKLAARLYRKALARQLGVAA [MMI-0300] |  |  |  | 102 |  |  |  |  |  |  |  |  | 104 |  | 115 | 117 | 119 | 105 | 
CC(C)C[C@H](NC(=O)[C@H](C)NC(=O)[C@H](CCCCN)NC(=O)[C@H](C)NC(=O)[C@H](CCCNC(=N)N)NC(=O)[C@H](C)NC(=O)[C@H](CCC(N)=O)NC(=O)[C@H](CCCNC(=N)N)NC(=O)[C@H](C)NC(=O)[C@H](C)NC(=O)[C@H](C)NC(=O)[C@H](CCCNC(=N)N)NC(=O)[C@H](C)NC(=O)[C@@H](N)Cc1ccc(O)cc1)C(=O)N[C@@H](C)C(=O)N[C@@H](CCCNC(=N)N)C(=O)N[C@@H](CCC(N)=O)C(=O)N[C@@H](CC(C)C)C(=O)NCC(=O)N[C@H](C(=O)N[C@@H](C)C(=O)N[C@@H](C)C(=O)O)C(C)C [MMI-0100] | 105 | 228 | 346 |  | 107 | 128 | 104 | 105 | 103 | 114 | 103 | 110 |  | 99 | 109 | 102 | 102 | 104 | % activity [20]: 117%; % activity [21]: 102%; % activity [22]: 104%; % activity [23]: 102%

Source: patent US20150258192A1, “COMPOSITIONS AND METHODS FOR PREVENTING OR TREATING CHRONIC LUNG ALLOGRAFT DYSFUNCTION (CLAD) AND IDIOPATHIC PULMONARY FIBROSIS (IPF)” (priority 2014, published 2015)
